A short description of experiment [1]: Selectivity ratio of Ki for displacement of [3H]N-methylspiperone from human D2L receptor expressed in HEK293T cell membrane to Ki for displacement of [3H]N-methylspiperone from human D4.4 receptor expressed in HEK293T cell membrane. (In general: Loss of bound radioactivity is the signal in a displacement assay; it reports binding, not function.)
For the next experiment, the target named is D(2) dopamine receptor (Homo sapiens, UniProt P14416). Description: Displacement of [3H]N-methylspiperone from human D2L receptor expressed in HEK293T cell membrane incubated for 1 hr by MicroBeta scintillation counting method. Type of experiment: cell membranes. An outline of the steps: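 Membranes from stably transfected HEK293 cells (hD2L, hD3 or hD4.4), 20 μg (D2, D3) or 30 μg (D4) protein/well. Incubated 1 h at room temperature in EBSS binding buffer, pH 7.4, with 0.4 nM [3H]N-methylspiperone and 10 half-log dilutions in triplicate. 10 μM (+)-butaclamol defines nonspecific binding. GF filtration, scintillation counting. Ki by Cheng–Prusoff from ≥3 experiments; selectivity is the Ki ratio.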

Amino acid sequences for entries named in this document (tags omitted).
UniProt P14416, whole entry: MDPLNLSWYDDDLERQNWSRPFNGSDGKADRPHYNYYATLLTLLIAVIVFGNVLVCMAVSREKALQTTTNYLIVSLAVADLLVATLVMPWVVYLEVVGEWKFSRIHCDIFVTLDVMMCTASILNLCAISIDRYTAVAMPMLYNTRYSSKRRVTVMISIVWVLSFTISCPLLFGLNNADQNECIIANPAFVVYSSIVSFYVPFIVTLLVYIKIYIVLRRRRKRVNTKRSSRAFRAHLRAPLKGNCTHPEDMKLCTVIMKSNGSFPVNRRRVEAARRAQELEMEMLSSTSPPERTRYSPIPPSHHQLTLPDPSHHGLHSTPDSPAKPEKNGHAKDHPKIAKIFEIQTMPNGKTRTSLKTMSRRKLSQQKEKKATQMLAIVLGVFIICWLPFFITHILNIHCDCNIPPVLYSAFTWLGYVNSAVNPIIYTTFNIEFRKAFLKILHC

Experiment [2] is described as follows: Selectivity ratio of Ki for displacement of [3H]N-methylspiperone from human D3R expressed in HEK293T cell membrane to Ki for displacement of [3H]N-methylspiperone from human D4.4 receptor expressed in HEK293T cell membrane.

A word on the Ki: it is a measure of affinity in units of concentration, obtained from inhibition or displacement. For the compound `O=C1CCc2ccccc2N1CCCN1CCN(c2cccc(Cl)c2Cl)CC1`, the values for the Ratio Ki in experiment [1] and in experiment [2] were 79 and 30, respectively. The same compound had a Ki on D(2) dopamine receptor of 55 nM.

For the origin of these results see ChEMBL document CHEMBL5104176, “Highly Potent and Selective Dopamine D4 Receptor Antagonists Potentially Useful for the Treatment of Glioblastoma” (J Med Chem, 2022).
